By UniProt entry, the sequences of proteins in these tests, tags left out.
UniProt P23975, whole entry: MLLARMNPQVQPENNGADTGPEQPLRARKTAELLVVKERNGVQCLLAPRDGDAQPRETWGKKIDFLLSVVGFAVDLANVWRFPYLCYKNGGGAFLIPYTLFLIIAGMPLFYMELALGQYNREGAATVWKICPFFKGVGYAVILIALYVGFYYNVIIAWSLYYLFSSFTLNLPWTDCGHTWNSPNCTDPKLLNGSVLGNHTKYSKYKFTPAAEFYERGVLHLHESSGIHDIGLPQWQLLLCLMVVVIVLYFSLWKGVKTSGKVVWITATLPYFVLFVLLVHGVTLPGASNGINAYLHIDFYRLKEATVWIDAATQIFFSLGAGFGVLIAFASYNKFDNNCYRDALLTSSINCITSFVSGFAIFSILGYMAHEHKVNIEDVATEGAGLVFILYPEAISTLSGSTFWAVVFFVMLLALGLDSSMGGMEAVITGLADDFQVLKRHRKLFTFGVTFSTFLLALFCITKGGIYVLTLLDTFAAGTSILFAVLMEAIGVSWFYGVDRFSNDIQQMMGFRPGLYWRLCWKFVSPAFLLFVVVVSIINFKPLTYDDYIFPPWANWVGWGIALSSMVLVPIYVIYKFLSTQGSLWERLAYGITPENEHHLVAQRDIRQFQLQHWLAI

According to patent US12195439B1, “C1-substituted isopropylamine fused heterocyclic mescaline derivatives” (Enveric Biosciences Canada Inc., priority 2022, dated 2025):

Target: norepinephrine transporter (NET) (Homo sapiens, UniProt P23975)
Experiment: Eurofins Cerep competition binding assay at norepinephrine transporter
Settings: read-out: NET, percent of control-specific binding, 10 μM test ligand, [3H]nisoxetine, recombinant transporter from CHO cells

## CC(NC(C)(C)C)C(=O)c1cccc(Cl)c1 (stereo not shown) [Bupropion, bupropion]
  inhibition at 10 µM: 12%
